# Experimental data: patent US20090029984A1 (priority 2005, published 2009)
# System: mice
structure (smiles),measurement,setting,value
"CCOC(=O)c1c(C)cc2nc(COC(=O)NCCO)n(-c3ccccc3S(=O)(=O)NC)c(=O)c2c1C [Compound 1a, 2-(2-Hydroxy-ethylcarbamoyloxymethyl)-5,7-dimethyl-3-(2-methylsulfamoylphenyl)-4-oxo-3,4-dihydro-quinazoline-6-carboxylic acid ethyl ester]",% of MPE,Compound 1a 0.1 μmol/kg i.v. co-administered with Fentanyl 0.05 μmol/kg,33.2%
same,% of MPE,Compound 1a 0.3 μmol/kg i.v. co-administered with Fentanyl 0.05 μmol/kg,37.1%
same,% of MPE,Compound 1a 1.0 μmol/kg i.v. co-administered with Fentanyl 0.05 μmol/kg,53.9%
same,combination versus opioid on its own (in words),"Compound 1a 1.0 μmol/kg with morphine, fentanyl or codeine, Dunn's post-test P<0.05",significantly different

# Like-named read-outs stand apart in the source and are kept apart here.
